Molecular target: human cathepsin L (Homo sapiens (Human), UniProt P07711)
Experiment: Human cathepsin L inhibition, Z-FR-AMC assay
Type: biochemical
Settings: read-out: Ki* hCatL; pH 5.5, 25° C.

Chains of the proteins cited; added tags and fusions are not shown. Residues count along the entry.
UniProt P07711, 114-333 limits assumed: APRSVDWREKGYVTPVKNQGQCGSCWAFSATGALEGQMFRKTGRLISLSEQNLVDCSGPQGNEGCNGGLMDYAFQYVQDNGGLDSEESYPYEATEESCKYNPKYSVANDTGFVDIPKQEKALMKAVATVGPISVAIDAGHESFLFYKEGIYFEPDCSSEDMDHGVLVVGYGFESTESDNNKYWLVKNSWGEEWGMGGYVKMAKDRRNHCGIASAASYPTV

**Q.** `CC(C)[C@H](NC(=O)OCc1ccccc1)C(=O)N[C@@H](CC1CCCCC1)C(=O)N[C@H](C=O)Cc1ccc[nH]c1=O` was tested. Which Ki did it give?
**A.** 50 nM

Source: patent US20240150396A1 (The Texas A&M University System, priority 2021, published 2024)
